Source: patent US12590134B2, “GLP-1 agonist polypeptide compound and salt thereof, synthesis method therefor and use thereof” (Sinopep-Allsino Biopharmaceutical Co., Ltd., priority 2020, dated 2026)

Amino acid sequences for entries named in this document (tags omitted). Residues count along the entry.
UniProt P43220, 24-463: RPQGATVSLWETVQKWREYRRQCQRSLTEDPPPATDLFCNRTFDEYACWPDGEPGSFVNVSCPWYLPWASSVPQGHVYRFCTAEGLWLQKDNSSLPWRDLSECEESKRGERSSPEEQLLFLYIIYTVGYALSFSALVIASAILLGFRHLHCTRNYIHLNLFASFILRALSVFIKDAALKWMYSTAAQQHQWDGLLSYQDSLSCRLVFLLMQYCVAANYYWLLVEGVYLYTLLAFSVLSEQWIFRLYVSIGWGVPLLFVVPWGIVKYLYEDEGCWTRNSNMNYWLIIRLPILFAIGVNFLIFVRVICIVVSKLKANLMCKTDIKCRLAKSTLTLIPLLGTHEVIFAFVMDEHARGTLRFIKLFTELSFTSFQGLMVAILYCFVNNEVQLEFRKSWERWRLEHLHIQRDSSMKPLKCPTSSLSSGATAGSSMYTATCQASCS

What was measured:
[1] = target: human GLP-1R (Homo sapiens, UniProt P43220); assay: cAMP signal analysis of GLP-1R (GLP-1 receptor agonist activity); assay type: cell-based; conditions: CHO cell line stably expressing human GLP-1R; downstream cAMP signal, LANCE cAMP kit
Method: A wild human GLP-1R (NM_002062.5) was subjected to transient transfection and screened for two weeks by 600 μg/ml of hygromycin-B to obtain a cell line which was recombined and integrated into an FlpInCHO (Invitrogen) cell stable expression system. The culture condition of the FlpInCHO cell was as follows: 10% of heat-inactivated fetal calf serum was added to a DMEM culture solution, and the culture was performed in a 5% carbon dioxide cell incubator.
In the test, an LANCE cAMP detection kit was used for measuring the cAMP signal intensity.

[2] = Pharmacokinetic comparison experiment in rats, single subcutaneous injection; conditions: rat, in vivo, sc, 0.02 mg/kg
Method: A single subcutaneous injection was performed with a dose of 0.02 mg/kg; blood collection was performed by tail clipping, and the blood collection time points were: 0 h, 15 min, 30 min, 1 h, 2 h, 3 h, 4 h, 6 h, 8 h, 24 h, 48 h and 72 h. The compound concentration in plasma was determined by LC-MS/MS, all data were collected and exported by Unifi 1.9.3 software, and Excel software was used for data calculation. A non-compartmental model of DAS 3.0 software was used to calculate the pharmacokinetic parameters of rats after administration.

SMILES: CCC[C@@H](NC(=O)[C@@H](N)Cc1c[nH]cn1)C(=O)N[C@@H](CCC(=O)O)C(=O)NCC(=O)N[C@H](C(=O)N[C@@H](Cc1ccccc1)C(=O)N[C@H](C(=O)N[C@@H](CO)C(=O)N[C@@H](CC(=O)O)C(=O)N[C@H](C(=O)N[C@@H](CO)C(=O)N[C@@H](CO)C(=O)N[C@@H](Cc1ccc(O)cc1)C(=O)N[C@@H](CC(C)C)C(=O)N[C@@H](CCC(=O)O)C(=O)NCC(=O)N[C@@H](CCC(N)=O)C(=O)N[C@@H](C)C(=O)N[C@@H](C)C(=O)N[C@@H](CCCCNC(=O)COCCOCCNC(=O)COCCOCCNC(=O)CC[C@H](NC(=O)CCCCCCCCCCCCCCCCC(=O)O)C(=O)O)C(=O)N[C@@H](CCC(=O)O)C(=O)N[C@@H](Cc1ccccc1)C(=O)N[C@H](C(=O)N[C@@H](C)C(=O)N[C@@H](Cc1c[nH]c2ccccc12)C(=O)N[C@@H](CC(C)C)C(=O)N[C@H](C(=O)N[C@@H](CCCNC(=N)N)C(=O)NCC(=O)N[C@@H](CCCNC(=N)N)C(=O)NCC(=O)O)C(C)C)[C@@H](C)CC)C(C)C)[C@@H](C)O)[C@@H](C)O [NO: 16]
- EC50 [1]: 2.51 ± 0.307 nM

SMILES: CC[C@H](C)[C@H](NC(=O)[C@H](Cc1ccccc1)NC(=O)[C@H](CCC(=O)O)NC(=O)[C@H](CCCCNC(=O)COCCOCCNC(=O)COCCOCCNC(=O)CC[C@H](NC(=O)CCCCCCCCCCCCCCCCC(=O)O)C(=O)O)NC(=O)[C@H](C)NC(=O)[C@H](C)NC(=O)[C@H](CCC(N)=O)NC(=O)CNC(=O)[C@H](CCC(=O)O)NC(=O)[C@H](CC(C)C)NC(=O)[C@H](Cc1ccc(O)cc1)NC(=O)[C@H](CO)NC(=O)[C@H](CO)NC(=O)[C@@H](NC(=O)[C@H](CC(=O)O)NC(=O)[C@H](CO)NC(=O)[C@@H](NC(=O)[C@H](Cc1ccccc1)NC(=O)[C@@H](NC(=O)CNC(=O)[C@H](CCC(=O)O)NC(=O)[C@](C)(CC)NC(=O)[C@@H](N)Cc1c[nH]cn1)[C@@H](C)O)[C@@H](C)O)C(C)C)C(=O)N[C@@H](C)C(=O)N[C@@H](Cc1c[nH]c2ccccc12)C(=O)N[C@@H](CC(C)C)C(=O)N[C@H](C(=O)N[C@@H](CCCNC(=N)N)C(=O)NCC(=O)N[C@@H](CCCNC(=N)N)C(=O)NCC(=O)O)C(C)C [NO: 4]
- CL/F ([2]; male): 0.15 mL/min/kg
- half-life ([2]; male): 14.2 h
- AUC(0-inf) [2]: 2060 ng·h/mL
- AUC(0-t) [2]: 1970 ng·h/mL
- AUMC(0-t), Mean [2]: 47513.48 h * h * μg/L
- AUMC(0-∞), Mean [2]: 56436.94 h * h * μg/L
- Cmax [2]: 47.2 ng/mL
- R_AUC(t/∞), Mean [2]: 95.30%
- Tmax [2]: 18.7 h

SMILES: CC[C@H](C)[C@H](NC(=O)[C@H](Cc1ccccc1)NC(=O)[C@H](CCC(=O)O)NC(=O)[C@H](CCCCNC(=O)COCCOCCNC(=O)COCCOCCNC(=O)CC[C@H](NC(=O)CCCCCCCCCCCCCCCCC(=O)O)C(=O)O)NC(=O)[C@H](C)NC(=O)[C@H](C)NC(=O)[C@H](CCC(N)=O)NC(=O)CNC(=O)[C@H](CCC(=O)O)NC(=O)[C@H](CC(C)C)NC(=O)[C@H](Cc1ccc(O)cc1)NC(=O)[C@H](CO)NC(=O)[C@H](CO)NC(=O)[C@@H](NC(=O)[C@H](CC(=O)O)NC(=O)[C@H](CO)NC(=O)[C@@H](NC(=O)[C@H](Cc1ccccc1)NC(=O)[C@@H](NC(=O)CNC(=O)[C@H](CCC(=O)O)NC(=O)[C@@](C)(CC)NC(=O)[C@@H](N)Cc1c[nH]cn1)[C@@H](C)O)[C@@H](C)O)C(C)C)C(=O)N[C@@H](C)C(=O)N[C@@H](Cc1c[nH]c2ccccc12)C(=O)N[C@@H](CC(C)C)C(=O)N[C@H](C(=O)N[C@@H](CCCNC(=N)N)C(=O)NCC(=O)N[C@@H](CCCNC(=N)N)C(=O)NCC(=O)O)C(C)C [NO: 2]
- EC50 [1]: 21.4 ± 1.32 nM

SMILES: CC[C@H](C)[C@H](NC(=O)[C@H](Cc1ccccc1)NC(=O)[C@H](CCC(=O)O)NC(=O)[C@H](CCCCNC(=O)COCCOCCNC(=O)COCCOCCNC(=O)CC[C@H](NC(=O)CCCCCCCCCCCCCCCCC(=O)O)C(=O)O)NC(=O)[C@H](C)NC(=O)[C@H](C)NC(=O)[C@H](CCC(N)=O)NC(=O)CNC(=O)[C@H](CCC(=O)O)NC(=O)[C@H](CC(C)C)NC(=O)[C@H](Cc1ccc(O)cc1)NC(=O)[C@H](CO)NC(=O)[C@H](CO)NC(=O)[C@@H](NC(=O)[C@H](CC(=O)O)NC(=O)[C@H](CO)NC(=O)[C@@H](NC(=O)[C@H](Cc1ccccc1)NC(=O)[C@@H](NC(=O)CNC(=O)[C@H](CCC(=O)O)NC(=O)C1(NC(=O)[C@@H](N)Cc2c[nH]cn2)COC1)[C@@H](C)O)[C@@H](C)O)C(C)C)C(=O)N[C@@H](C)C(=O)N[C@@H](Cc1c[nH]c2ccccc12)C(=O)N[C@@H](CC(C)C)C(=O)N[C@H](C(=O)N[C@@H](CCCNC(=N)N)C(=O)NCC(=O)N[C@@H](CCCNC(=N)N)C(=O)NCC(=O)O)C(C)C [NO: 6]
- EC50 [1]: 0.623 ± 0.0835 nM

SMILES: CCCC[C@@H](NC(=O)[C@@H](N)Cc1c[nH]cn1)C(=O)N[C@@H](CCC(=O)O)C(=O)NCC(=O)N[C@H](C(=O)N[C@@H](Cc1ccccc1)C(=O)N[C@H](C(=O)N[C@@H](CO)C(=O)N[C@@H](CC(=O)O)C(=O)N[C@H](C(=O)N[C@@H](CO)C(=O)N[C@@H](CO)C(=O)N[C@@H](Cc1ccc(O)cc1)C(=O)N[C@@H](CC(C)C)C(=O)N[C@@H](CCC(=O)O)C(=O)NCC(=O)N[C@@H](CCC(N)=O)C(=O)N[C@@H](C)C(=O)N[C@@H](C)C(=O)N[C@@H](CCCCNC(=O)COCCOCCNC(=O)COCCOCCNC(=O)CC[C@H](NC(=O)CCCCCCCCCCCCCCCCC(=O)O)C(=O)O)C(=O)N[C@@H](CCC(=O)O)C(=O)N[C@@H](Cc1ccccc1)C(=O)N[C@H](C(=O)N[C@@H](C)C(=O)N[C@@H](Cc1c[nH]c2ccccc12)C(=O)N[C@@H](CC(C)C)C(=O)N[C@H](C(=O)N[C@@H](CCCNC(=N)N)C(=O)NCC(=O)N[C@@H](CCCNC(=N)N)C(=O)NCC(=O)O)C(C)C)[C@@H](C)CC)C(C)C)[C@@H](C)O)[C@@H](C)O [NO: 14]
- EC50 [1]: 5.4 ± 0.365 nM

SMILES: CC[C@H](NC(=O)[C@@H](N)Cc1c[nH]cn1)C(=O)N[C@@H](CCC(=O)O)C(=O)NCC(=O)N[C@H](C(=O)N[C@@H](Cc1ccccc1)C(=O)N[C@H](C(=O)N[C@@H](CO)C(=O)N[C@@H](CC(=O)O)C(=O)N[C@H](C(=O)N[C@@H](CO)C(=O)N[C@@H](CO)C(=O)N[C@@H](Cc1ccc(O)cc1)C(=O)N[C@@H](CC(C)C)C(=O)N[C@@H](CCC(=O)O)C(=O)NCC(=O)N[C@@H](CCC(N)=O)C(=O)N[C@@H](C)C(=O)N[C@@H](C)C(=O)N[C@@H](CCCCNC(=O)COCCOCCNC(=O)COCCOCCNC(=O)CC[C@H](NC(=O)CCCCCCCCCCCCCCCCC(=O)O)C(=O)O)C(=O)N[C@@H](CCC(=O)O)C(=O)N[C@@H](Cc1ccccc1)C(=O)N[C@H](C(=O)N[C@@H](C)C(=O)N[C@@H](Cc1c[nH]c2ccccc12)C(=O)N[C@@H](CC(C)C)C(=O)N[C@H](C(=O)N[C@@H](CCCNC(=N)N)C(=O)NCC(=O)N[C@@H](CCCNC(=N)N)C(=O)NCC(=O)O)C(C)C)[C@@H](C)CC)C(C)C)[C@@H](C)O)[C@@H](C)O [NO: 8]
- EC50 [1]: 7.92 ± 1.06 nM

SMILES: CC[C@@H](NC(=O)[C@@H](N)Cc1c[nH]cn1)C(=O)N[C@@H](CCC(=O)O)C(=O)NCC(=O)N[C@H](C(=O)N[C@@H](Cc1ccccc1)C(=O)N[C@H](C(=O)N[C@@H](CO)C(=O)N[C@@H](CC(=O)O)C(=O)N[C@H](C(=O)N[C@@H](CO)C(=O)N[C@@H](CO)C(=O)N[C@@H](Cc1ccc(O)cc1)C(=O)N[C@@H](CC(C)C)C(=O)N[C@@H](CCC(=O)O)C(=O)NCC(=O)N[C@@H](CCC(N)=O)C(=O)N[C@@H](C)C(=O)N[C@@H](C)C(=O)N[C@@H](CCCCNC(=O)COCCOCCNC(=O)COCCOCCNC(=O)CC[C@H](NC(=O)CCCCCCCCCCCCCCCCC(=O)O)C(=O)O)C(=O)N[C@@H](CCC(=O)O)C(=O)N[C@@H](Cc1ccccc1)C(=O)N[C@H](C(=O)N[C@@H](C)C(=O)N[C@@H](Cc1c[nH]c2ccccc12)C(=O)N[C@@H](CC(C)C)C(=O)N[C@H](C(=O)N[C@@H](CCCNC(=N)N)C(=O)NCC(=O)N[C@@H](CCCNC(=N)N)C(=O)NCC(=O)O)C(C)C)[C@@H](C)CC)C(C)C)[C@@H](C)O)[C@@H](C)O [NO: 10]
- EC50 [1]: 0.525 ± 0.052 nM

SMILES: CCSC[C@@H](NC(=O)[C@@H](N)Cc1c[nH]cn1)C(=O)N[C@@H](CCC(=O)O)C(=O)NCC(=O)N[C@H](C(=O)N[C@@H](Cc1ccccc1)C(=O)N[C@H](C(=O)N[C@@H](CO)C(=O)N[C@@H](CC(=O)O)C(=O)N[C@H](C(=O)N[C@@H](CO)C(=O)N[C@@H](CO)C(=O)N[C@@H](Cc1ccc(O)cc1)C(=O)N[C@@H](CC(C)C)C(=O)N[C@@H](CCC(=O)O)C(=O)NCC(=O)N[C@@H](CCC(N)=O)C(=O)N[C@@H](C)C(=O)N[C@@H](C)C(=O)N[C@@H](CCCCNC(=O)COCCOCCNC(=O)COCCOCCNC(=O)CC[C@H](NC(=O)CCCCCCCCCCCCCCCCC(=O)O)C(=O)O)C(=O)N[C@@H](CCC(=O)O)C(=O)N[C@@H](Cc1ccccc1)C(=O)N[C@H](C(=O)N[C@@H](C)C(=O)N[C@@H](Cc1c[nH]c2ccccc12)C(=O)N[C@@H](CC(C)C)C(=O)N[C@H](C(=O)N[C@@H](CCCNC(=N)N)C(=O)NCC(=O)N[C@@H](CCCNC(=N)N)C(=O)NCC(=O)O)C(C)C)[C@@H](C)CC)C(C)C)[C@@H](C)O)[C@@H](C)O [NO: 12]
- EC50 [1]: 8.92 ± 0.31 nM
